Measured values as given in article PMC4323687 (Neurobiology of disease, 2014).

What was measured:
[1] = tested on: mThy1-hAPP751 APPtg mouse model of AD; assay: Immunohistochemistry of synaptophysin, MAP2, NeuN and GFAP in APPtg mouse brain; format: in vivo
[2] = tested on: mThy1-hAPP751 APPtg mouse model of AD; assay: Aβ immunostaining of plaques in frontal cortex and hippocampus of APPtg mice; format: in vivo; conditions: same treatments as E16
[3] = tested on: primary cortical neurons; conditions: 0.5, 5, 10, 20 and 50 μM, 24 hours, MTT
[4] = tested on: mThy1-hAPP751 APPtg mouse model of AD; assay: Electron microscopy of neuropil and amyloid in APPtg mouse brain; format: in vivo; conditions: same treatments as E16

Oc1c(Cl)cc(Cl)c(Cl)c1Cc1c(O)c(Cl)cc(Cl)c1Cl [hexachlorophene]
synapse loss (SYN-immunoreactivity) in the frontal cortex ([1]; vs APPtg mice treated with PBS): significantly reversed
synapse loss (SYN-immunoreactivity) in the hippocampus ([1]; vs APPtg mice treated with PBS): significantly reversed
MAP2 immunoreactivity (neuronal damage) in the frontal cortex ([1]; vs vehicle-treated APPtg mice): reversion of the damage
NeuN immunoreactivity in the frontal cortex ([1]; vs vehicle-treated APPtg mice): increase
Aβ42-immunoreactivity in the hippocampus (% area of neuropil) vs vehicle APPtg [2]: high Aβ42-immunoreactivity
effect of compound alone on cellular viability of neurons [3]: significant reduction of the cellular viability only at high concentrations
amyloid fibrils in neuropil by electron microscopy [4]: abundant fibrils and plaques
status of axons/neurites in neuropil by electron microscopy [4]: abnormal dystrophic neurites were found
